# According to US20250064840A1, “DRUG DELIVERY SYSTEMS BASED ON ENDOPEROXIDES USEFUL IN DIAGNOSIS AND THERAPY, AND METHODS THEREOF” (FACULDADE DE FARMÁCIA DA UNIVERSIDADE DE LISBOA, priority 2021, published 2025):
# Assays:
# HCT116 cells [1] = test: Fluorescence imaging for compound cellular localization; settings: 1 μM, 24 hours incubation
# HCT116 cells [2] = test: Iron competition assay with DFO, MTS assay; format: cell-based, human; settings: 24 hours
# [3] = system: HCT116 human colorectal carcinoma; test: Antitumoral effect, MTS metabolism assay, HCT116; format: cell-based; settings: read-out: IC50 HCT116, 72 hours
# U251 human glioblastoma = test: Antitumoral effect, MTS metabolism assay, U251; format: cell-based; settings: read-out: IC50 U251, 72 hours
# HT-29 cells = test: In vivo xenograft murine model, colorectal cancer; settings: 2 mg/kg intravenous
# [4] = system: AML12 murine immortalized hepatocyte cell line; test: Toxicity for non-tumoral cells, MTS assay, AML12; format: cell-based
# [5] = system: PC3 human prostate adenocarcinoma; test: Antitumoral effect, MTS metabolism assay, PC3; format: cell-based; settings: read-out: IC50 PC3, 72 hours
# [6] = system: MCF7 human breast adenocarcinoma; test: Antitumoral effect, MTS metabolism assay, MCF7; format: cell-based; settings: read-out: IC50 MCF7, 72 hours
substance,measurement,setting,value
"5-hydroxydispiro[adamantane-2,3′-[1,2,4,5]tetraoxane-6′,1″-cyclohexan]-3″-yl (3-hydroxy-2-methyl-6-(((2S, 4S)-4,5,12-trihydroxy-4-(2-hydroxyacetyl)-10-methoxy-6,11-dioxo-1,2,3,4,6,11-hexahydrotetracen-2-yl)oxy)tetrahydro-2H-pyran-4-yl)carbamate",cellular localization of fluorescence,HCT116 cells [1],activated and released doxorubicin in the cytosol
same,"induction of cell death (cell viability, MTS)","HCT116 cells [2]; 10 μM compound alone, versus DMSO",induces cell death
same,reduction in potency with DFO versus compound alone,HCT116 cells [2]; 10 μM compound together with 1 μM DFO,significant reduction
same,IC50,[3],3.32 µM
same,IC50,U251 human glioblastoma,5.21 µM
same,tumour volume versus vehicle control at day 12,"HT-29 cells; day 12, p<0.05",significant reduction in tumour volume
same,reduction of the tumour mass versus negative control and vehicle control,HT-29 cells; eight injections,higher reduction of the tumour mass
same,reduction of tumour mass compared with doxorubicin,HT-29 cells; eight injections,more efficient in reducing the tumour mass than doxorubicin
same,Selectivity (IC50Compound II/IC50 Doxorubicin),"[4]; AML12, ratio to doxorubicin",4290
same,IC50,"[4]; read-out: IC50 AML12, non-tumorigenic cell line, 72 hours, MTS",730 µM
same,IC50,[5],3.07 µM
same,IC50,[6],6.69 µM
